Source: article PMC3972672
Values joined by “and” are separate entries in the source; they are usually repeats but may differ in a detail not shown here. Equal values may be shown once.

Biological target: FADD (human (endogenous in SKW6.4)) (UniProt Q13158)
Test: affinity purification with mass spectrometry; anti-CD95 DISC IP from 5x10^7 SKW6.4 cells stimulated with 1 ug/mL LZ-CD95L; 1D-PAGE, in-gel trypsin digestion, 50 fmol of each heavy AQUA peptide spiked in, nanoLC-ESI-MS/MS on LTQ Orbitrap; amounts summed over gel slices; six replicate IPs

- stoichiometry N: 0.1 and 0.3
Substance: cellular FLICE inhibitory protein (c-FLIP) (from UniProt O15519 1-480) (natural protein; other documents disagree on this pair)
